IC50 and Ki data for two compounds are collected here from patent US20040024024A1, “Aromatic sulfone hydroxamates and their use as protease inhibitors” (priority 2001, published 2004).

By UniProt entry, the sequences of proteins in these tests, tags left out. Residues count along the entry.
UniProt P08253, 110-660 limits assumed: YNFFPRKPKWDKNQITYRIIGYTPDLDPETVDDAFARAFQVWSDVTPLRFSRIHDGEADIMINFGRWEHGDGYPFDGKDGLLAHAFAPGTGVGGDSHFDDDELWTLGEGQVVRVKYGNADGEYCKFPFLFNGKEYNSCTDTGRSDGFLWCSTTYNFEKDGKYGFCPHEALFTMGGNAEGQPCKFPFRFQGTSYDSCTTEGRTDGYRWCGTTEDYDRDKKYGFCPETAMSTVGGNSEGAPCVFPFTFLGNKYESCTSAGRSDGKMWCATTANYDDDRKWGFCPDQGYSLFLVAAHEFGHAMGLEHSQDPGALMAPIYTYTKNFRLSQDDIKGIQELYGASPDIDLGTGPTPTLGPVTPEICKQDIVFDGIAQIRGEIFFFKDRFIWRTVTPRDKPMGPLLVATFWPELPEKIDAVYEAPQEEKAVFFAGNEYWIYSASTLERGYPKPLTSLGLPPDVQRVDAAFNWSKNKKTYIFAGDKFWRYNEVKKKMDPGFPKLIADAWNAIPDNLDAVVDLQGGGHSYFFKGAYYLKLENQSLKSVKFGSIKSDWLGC
UniProt P03956, 100-469 limits assumed: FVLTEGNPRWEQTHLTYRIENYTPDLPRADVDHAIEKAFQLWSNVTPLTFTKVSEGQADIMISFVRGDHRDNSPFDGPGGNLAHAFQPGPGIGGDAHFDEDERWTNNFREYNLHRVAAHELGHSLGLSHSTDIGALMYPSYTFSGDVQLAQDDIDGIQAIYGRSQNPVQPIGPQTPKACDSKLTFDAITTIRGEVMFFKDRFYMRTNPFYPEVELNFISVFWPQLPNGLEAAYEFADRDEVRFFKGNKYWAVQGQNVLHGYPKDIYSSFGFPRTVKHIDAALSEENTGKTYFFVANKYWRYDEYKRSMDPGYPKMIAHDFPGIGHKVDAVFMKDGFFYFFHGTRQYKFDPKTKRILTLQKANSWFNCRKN
UniProt P14780, 107-707 limits assumed: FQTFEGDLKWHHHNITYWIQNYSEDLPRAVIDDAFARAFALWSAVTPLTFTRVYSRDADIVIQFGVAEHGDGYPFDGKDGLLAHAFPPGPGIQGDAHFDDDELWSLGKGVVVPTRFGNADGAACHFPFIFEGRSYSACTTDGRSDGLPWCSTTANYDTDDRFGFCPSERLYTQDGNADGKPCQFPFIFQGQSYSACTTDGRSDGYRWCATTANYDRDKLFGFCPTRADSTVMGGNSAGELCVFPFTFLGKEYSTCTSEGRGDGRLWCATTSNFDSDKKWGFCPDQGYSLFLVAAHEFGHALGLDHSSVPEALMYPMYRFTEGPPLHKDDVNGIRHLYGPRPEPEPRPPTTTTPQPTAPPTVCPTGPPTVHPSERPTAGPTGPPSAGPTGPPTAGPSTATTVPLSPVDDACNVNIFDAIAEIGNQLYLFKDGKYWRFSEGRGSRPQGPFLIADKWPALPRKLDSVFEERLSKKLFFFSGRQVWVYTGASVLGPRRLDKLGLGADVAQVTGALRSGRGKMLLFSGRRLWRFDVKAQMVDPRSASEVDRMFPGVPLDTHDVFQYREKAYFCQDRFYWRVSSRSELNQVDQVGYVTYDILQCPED

Each structure is given as a SMILES string. Like-named read-outs stand apart in the source and are kept apart here. Where only a bound is given, the exact number is not on record here.

The target of test [1] is T1, Human recombinant MMP-13 (Homo sapiens, UniProt P45452). The test can be described thus: In vitro MMP inhibition, IC50 determination (fluorogenic substrate I). Particulars: read-out: MMP-13 IC50.
Test [2] concerns the target T2, Human recombinant MMP-2 (Homo sapiens, UniProt P08253). Described as above. Particulars: read-out: MMP-2 IC50.
Test [3] deals with T3, Human recombinant MMP-1 (Homo sapiens, UniProt P03956). The test is described as follows: In vitro MMP inhibition, Ki determination (fluorogenic substrate II). Particulars: read-out: MMP-1 (Ki).
Test [4] deals with T1, Human recombinant MMP-13. The test is described as above. Particulars: read-out: MMP-13 (Ki).
Test [5] concerns the target T4, Human recombinant MMP-14 (Homo sapiens, UniProt P50281). Described as above. Particulars: read-out: MMP-14 (Ki).
Test [6] concerns the target T2, Human recombinant MMP-2. The test is described as above. Particulars: read-out: MMP-2 (Ki); value in parenthesis.
Test [7] addresses T5, Human recombinant MMP-9 (Homo sapiens, UniProt P14780). The test is described as above. Particulars: read-out: MMP-9 (Ki).
Test [8] deals with T3, Human recombinant MMP-1. The test is described as follows: In vitro MMP inhibition, IC50 determination (fluorogenic substrate I). Particulars: read-out: MMP-1 IC50; substrate (I) 4 μM, room temperature; values not in parenthesis; tested form: HCl.
The target of test [9] is T4, Human recombinant MMP-14. Described as above. Particulars: read-out: MMP-14 IC50; substrate (I) 4 μM, room temperature; values not in parenthesis; tested form: HCl.
Test [10] concerns the target T5, Human recombinant MMP-9. Described as above. Particulars: read-out: MMP-9 IC50; substrate (I) 4 μM, room temperature; values not in parenthesis; tested form: HCl.
[11] abbreviates: substrate (I) 4 μM, room temperature, values not in parenthesis, tested form: HCl.
Setting [12] is: substrate (II) 4 μM, 1 hr room temperature, apparent Ki, values in parenthesis, tested form: HCl.

Usually IC50 stands for the concentration at which inhibition is half-maximal. Consider `Cc1ccc(-c2cccc(CCCOc3ccc(S(=O)(=O)C4(C(=O)NO)CCOCC4)cc3)c2)cc1`, for which the IC50 at Human recombinant MMP-13 [1] (value outside parenthesis) stood at 12.2 nM; at Human recombinant MMP-2 [2] (value outside parenthesis) it was 2120 nM. The Ki at Human recombinant MMP-1 [3] (value in parenthesis) was over 10000 nM; at Human recombinant MMP-13 [4] (value in parenthesis), 11.5 nM; at Human recombinant MMP-14 [5] (value in parenthesis), over 10000 nM; on Human recombinant MMP-2 [6], 4090 nM; at Human recombinant MMP-9 [7] (value in parenthesis), 3480 nM.

Consider `O=C(NO)C1(S(=O)(=O)c2ccc(OCCCc3cccc(-c4ccccc4)c3)cc2)CCN(C2CC2)CC1`, for which the IC50 on Human recombinant MMP-1 [8] was over 10000 nM; at Human recombinant MMP-13 [1] (setting [11]) it was 0.9 nM; at Human recombinant MMP-14 [9], over 10000 nM; at Human recombinant MMP-2 [2] (setting [11]) it was 158 nM; on Human recombinant MMP-9 [10], 1030 nM. For the same compound, the Ki on Human recombinant MMP-1 [3] (setting [12]) is over 10000 nM; at Human recombinant MMP-13 [4] (setting [12]), 6.55 nM; on Human recombinant MMP-14 [5] (setting [12]), 4450 nM; at Human recombinant MMP-9 [7] (setting [12]), 370 nM.
